Assay results taken from ChEMBL document CHEMBL5316322, “Discovery and Characterization of the Topical Soft JAK Inhibitor CEE321 for Atopic Dermatitis” (J Med Chem, 2023).

The chains behind the UniProt entries cited, without tags or fusion partners. Where a name states a change or a piece, a line headed by the entry shows the natural chain unless it says otherwise.
UniProt O60674: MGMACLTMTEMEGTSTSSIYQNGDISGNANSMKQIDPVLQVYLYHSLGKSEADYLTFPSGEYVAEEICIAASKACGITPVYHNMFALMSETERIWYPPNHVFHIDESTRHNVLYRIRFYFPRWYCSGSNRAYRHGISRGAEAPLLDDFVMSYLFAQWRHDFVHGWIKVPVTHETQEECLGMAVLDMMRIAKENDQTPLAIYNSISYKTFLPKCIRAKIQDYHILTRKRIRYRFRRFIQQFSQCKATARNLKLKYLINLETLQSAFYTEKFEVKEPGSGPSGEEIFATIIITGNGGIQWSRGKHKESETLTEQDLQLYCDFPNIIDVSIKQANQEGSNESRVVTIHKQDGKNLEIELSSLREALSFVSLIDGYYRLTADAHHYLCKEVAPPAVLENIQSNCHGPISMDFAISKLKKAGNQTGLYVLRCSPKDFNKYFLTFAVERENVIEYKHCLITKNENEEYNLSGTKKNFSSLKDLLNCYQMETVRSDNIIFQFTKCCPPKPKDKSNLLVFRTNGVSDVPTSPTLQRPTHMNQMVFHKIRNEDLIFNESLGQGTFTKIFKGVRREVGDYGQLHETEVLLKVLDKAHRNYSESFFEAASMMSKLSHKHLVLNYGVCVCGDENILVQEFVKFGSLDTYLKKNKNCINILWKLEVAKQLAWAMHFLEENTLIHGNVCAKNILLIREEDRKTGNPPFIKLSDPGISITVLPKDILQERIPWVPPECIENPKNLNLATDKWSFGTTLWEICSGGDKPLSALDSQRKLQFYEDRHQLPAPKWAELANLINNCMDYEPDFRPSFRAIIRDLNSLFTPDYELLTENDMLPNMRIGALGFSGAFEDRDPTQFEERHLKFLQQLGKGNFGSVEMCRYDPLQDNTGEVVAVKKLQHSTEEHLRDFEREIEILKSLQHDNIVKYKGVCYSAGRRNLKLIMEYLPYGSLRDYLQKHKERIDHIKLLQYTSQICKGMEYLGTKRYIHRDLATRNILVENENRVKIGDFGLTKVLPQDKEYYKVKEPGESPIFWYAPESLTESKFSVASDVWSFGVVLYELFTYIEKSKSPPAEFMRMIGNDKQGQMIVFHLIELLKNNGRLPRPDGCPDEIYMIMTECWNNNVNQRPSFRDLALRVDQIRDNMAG

Target: Tyrosine-protein kinase JAK2 (Homo sapiens, UniProt O60674)

## CCS(=O)(=O)N1CC(CC#N)(n2cc(-c3ncnc4[nH]ccc34)cn2)C1 [BARICITINIB]
  pIC50: 8.54

pIC50: −log10 of the molar value.
